These results are taken from ChEMBL document CHEMBL4052827, “Discovery of Tetrahydroisoquinoline-Containing CXCR4 Antagonists with Improved in Vitro ADMET Properties” (J Med Chem, 2018).

This assay is filed under the species Homo sapiens. In words: Selectivity index, ratio of IC50 for recombinant human CYP2D6 expressed in microsomes of insect cells to IC50 for CXCR4 in human CCRF-CEM cells.

With `CC(C)(CCN(C[C@H]1Cc2ccccc2CN1)[C@H]1CCCc2cccnc21)CNC1CCOCC1`, the Ratio IC50 was 171.
